Reference: patent publication US20220133841A1 (Ra Pharmaceuticals, Inc., priority 2018, published 2022)

Legend:
[1] = tested on: AChR autoantibody-positive patients with refractory gMG; conditions: cited from earlier work
[2] = not told
[3] = cited from earlier work
[4] = tested on: AChR autoantibody-positive patients; conditions: 26 weeks, cited from earlier work

In the case of eculizumab, the “Patients achieving a ≥3-point improvement in QMG score” value ([1]; after initial 16-week treatment period, placebo 4 out of 7) is listed as 6 out of 7, the “Time to impact on QMG score after initiating treatment” value ([1]; favored eculizumab vs placebo across all visits (p=0.0144)) is listed as at most 1 week and the “Patients achieving an 8-point reduction in QMG score” value ([1]; of responders, placebo arm 1) is listed as 4 patients. For the same substance, the “Percentage diffused from upper to lower reservoir” value [2] was “less than 20%”, the “Eculizumab biodistribution % (inferred)” value ([3]; Bone) was 7.27% and the “Eculizumab biodistribution % (inferred)” value ([3]; Brain) was 0.35%. The “Eculizumab biodistribution % (inferred)” value ([3]; Fat) was 4.78%, the “Eculizumab biodistribution % (inferred)” value ([3]; Heart) was 10.2% and the “Eculizumab biodistribution % (inferred)” value ([3]; Large Intestine) was 5.03%. The “Eculizumab biodistribution % (inferred)” value ([3]; Liver) was 12.1%, the “Eculizumab biodistribution % (inferred)” value ([3]; Lung, based on Shah et al. 2013) was 14.9% and the “Eculizumab biodistribution % (inferred)” value ([3]; Lymph nodes) was 8.46%. The “Eculizumab biodistribution % (inferred)” value ([3]; Muscle) was 3.97%, the “Eculizumab biodistribution % (inferred)” value ([3]; Pancreas) was 6.4% and the “Eculizumab biodistribution % (inferred)” value ([3]; Small intestine) was 5.22%. For the same substance, the “Eculizumab biodistribution % (inferred)” value ([3]; Spleen) was 12.8%, the “Eculizumab biodistribution % (inferred)” value ([3]; Stomach) was 4.98% and the “Eculizumab biodistribution % (inferred)” value ([3]; Testes) was 5.88%. The “Eculizumab biodistribution % (inferred)” value ([3]; Thymus) was 6.62%, the “Change from baseline in QMG score (secondary endpoint)” value ([4]; p=0.0129) was “statistically significant” and the “Change from baseline in MG-ADL relative to placebo (primary endpoint)” value ([4]; p=0.0698) was “not associated with a statistically significant benefit”.

Read-outs that look alike come from different tables or passages of the source.
